Values of other authors as cited in patent publication US20240400784A1, “Method for Screening Solvent for Extracting Polyvinyl Chloride, Method for Recycling Waste, Recycled Polyvinyl Chloride, and Composition” (LG Chem, Ltd., priority 2021, published 2024).

Details: value in Table 1 of Document #1; swollen PVC and solvent volume based on PVC volume

## 1-Butanol
  PVC swelling ratio: 1
